{
  "source": "patent US8455439B2",
  "about": "“Antidotes for factor Xa inhibitors and methods of using the same in combination with blood coagulating agents” (Portola Pharmaceuticals, Inc., priority 2008, dated 2013)",
  "molecules": {"B1": {"name": "pd-Antidote: des-Gla anhydro fXa derivative having the amino acid residues of SEQ ID NO. 10 (protein)", "chain": "KDGDQCETSPCQNQGKCKDGLGEYTCTCLEGFEGKNCELFTRKLCSLDNGDCDQFCHEEQNSVVCSCARGYTLADNGKACIPTGPYPCGKQTLERIVGGQECKDGECPWQALLINEENEGFCGGTILSEFYILTAAHCLYQAKRFKVRVGDRNTEQEEGGEAVHEVEVVIKHNRFTKETYDFDIAVLRLKTPITFRMNVAPACLPERDWAESTLMTQKTGIVSGFGRTHEKGRQSTRLKMLEVPYVDRNSCKLSSSFIITQNMFCAGYDTKQEDACQGDAGGPHVTRFKDTYFVTGIVSWGEGCARKGKYGIYTKVTAFLKWIDRSMKTRGLPKAKSHAPEVITSSPLK", "modifications": "anhydro active-site serine"}},
  "type_in_all_cases": "biochemical",
  "key": {"procoagulant activity": {"tested_on": "procoagulant activity", "assay": "Procoagulant activity of active-site mutant by clotting / fXa activity assays", "conditions": "in vitro clotting / fXa activity assays"}, "[1]": {"tested_on": "human platelet poor plasma", "assay": "Clotting prolongation assay, 96-well plate format (OD405 turbidity change, aPTT reagent)", "description": "(§1) Two clotting assay formats were used to test the effects of factor Xa inhibitors and the antidote on clotting prolongation. In the first format, a 96-well plate was used to measure multiple samples at the same time. In the second assay format, aPTT was measured with a conventional coagulation instrument (MLA Electra 800 automatic coagulation timer).\nIn the 96-well plate format method, human platelet poor plasma or platelet rich plasma was prepared similarly as procedures in Example 2. 75-100 μL plasma was recalcified with CaCl2, incubated at 37° C. for 3 minutes and clot formation was initiated by adding tissue factor (Innovin, Dade Behring) or an aPTT reagent (Actin FS, Dade Behring). Change of OD405 was monitored continuously by a plate reader (Molecular Devices). Clotting time was defined as the time (second) when the half maximal value of absorbance (0D405 nm) change was reached. Factor Xa inhibitor and antidote, when present, were pre-incubated with plasma at room temperature for 20 minutes before initiation of the reaction.\nIn FIG. 18, the effect of r-Antidote to reverse the inhibitory effect of LMWH enoxaparin (Sanofi-Aventis) was tested by turbidity changes in human plasma. Enoxaparin (0-1.25 U/mL) was incubated at 22° C. for 20 min with or without 508 nM r-Antidote. Turbidity changes were measured according to procedures described in Example 3. 508 nM r-Antidote substantially corrected (>75%) the inhibitory effect of 0.3125-1.25 U/mL Enoxaparin.\nTurbidity change of human platelet poor plasma (PPP) with an aPTT reagent (Actin FS) was monitored according to procedure described in Example 3."}, "pooled human plasma": {"tested_on": "pooled human plasma", "assay": "aPTT clotting assay, MLA Electra 800 automatic coagulation timer", "conditions": "FIG. 13", "description": "as §1\nIn FIG. 19, the effect of r-Antidote on reversal of anticoagulation by a low molecular weight heparin (LMWH enoxaparin, Sanofi-Aventis) was tested in a human plasma clotting assay. The effect of 1 antiXa Unit/mL LMWH on aPTT prolongation of plasma and the reversal of inhibitory effect was measured by a MLA Electra 800 Automatic coagulation timer. 100 μL pooled citrate anticoagulated human plasma was mixed with enoxaparin and different concentrations of antidote. Prior to measurement of clotting time, aPTT reagent (Actin FS, Dade Behring) and CaCl2 were added per manufacturer's instructions."}, "purified human thrombin": {"target": "T1, purified human thrombin (Homo sapiens, UniProt P00734)", "T1 construct": "catalyzes the conversion of prothrombin to thrombin", "assay": "Thrombin chromogenic assay (S2288) with argatroban", "conditions": "antidote up to 538 nM; thrombin 5 nM; argatroban 50 nM; FIG. 12", "description": "The effect of the antidote des-Gla anhydro-fXa on thrombin activity toward a chromogenic substrate S2288 (200 μM) was measured similarly as before with or without Argatroban, a specific small molecule Ha inhibitor.\nAfter incubation at room temperature for 20 min, an amidolytic substrate S2288 (200 uM) was added to the mixture and the rate of p-nitroanilide substrate cleavage was monitored by absorbance at 405 nm."}, "[2]": {"tested_on": "thrombin generation in human plasma", "assay": "Thrombin generation assay in platelet poor or platelet rich plasma", "conditions": "680 nM antidote, varying betrixaban; FIG. 9", "description": "PRP and PPP were prepared by spinning the anticoagulated blood at ˜100× gravity or 1000× gravity for 20 minutes, respectively, at room temperature. 75-100 microliter (uL) plasma was mixed with CaCl2 and Z-Gly-Gly-Arg-aminomethylcoumarin (Z-GGR-AMC, a thrombin fluorogenic substrate). Tissue factor (Innovin, Dade Behring) was added to initiate the generation of thrombin. For a typical experiment, the reaction mixture contained 15 millimolar (mM) Ca^2+, 100 micromolar (μM) Z-GGR-AMC, and 0.1 nanomolar (nM) tissue factor (TF) (Innovin). Thrombin formation was monitored continuously at 37° C. by a fluorometric plate reader (Molecular Devices) measuring the relative fluorescence units (RFU). Inhibitor and antidote, when present, were pre-incubated with plasma for 20 minutes at room temperature before initiation of thrombin generation.\nThe results of various experiments using this assay may be found in FIGS. 4, 6, and 9.\nPRP and PPP were prepared by spinning the anticoagulated blood at ˜100× gravity or 1000× gravity for 20 minutes, respectively, at room temperature. […] Tissue factor (Innovin, Dade Behring) and CaCl2 were added to initiate the generation of thrombin. For a typical experiment, the reaction mixture contained 15 millimolar (mM) Ca^2+, 100 micromolar (μM) Z-GGR-AMC, and 0.1 nanomolar (nM) tissue factor (TF) (Innovin). Thrombin formation was monitored continuously at 37° C. by a fluorometric plate reader (Molecular Devices) measuring the relative fluorescence units (RFU). When present, the inhibitor and the antidote were pre-incubated with plasma for 15 minutes at room temperature before initiation of thrombin generation. Recombinant VIIa (rVIIa, Novoseven), when present, was added before addition of TF to initiate the reaction."}},
  "note": "“Also recorded” adds a separate entry of the source.",
  "data": [
    {"molecule": "fX-S395A: recombinant active-site mutant said to have essentially no procoagulant activity", "values": [
      {"measurement": "procoagulant activity", "setting": "procoagulant activity", "result": "essentially has no procoagulant activity"}
    ]},
    {"molecule": "fX: human factor X (Hematologic Technologies)", "values": [
      {"measurement": "reduction of clotting time", "setting": "[1]; 170 nM fX, plasma with or without 125 nM betrixaban, FIG. 26", "result": "~20", "unit": "%"}
    ]},
    {"molecule": "B1", "values": [
      {"measurement": "effect on anticoagulant activity of enoxaparin", "setting": "[1]; 563 nM antidote, enoxaparin 0.3125-1.25 U/mL, FIG. 11", "result": "capable of reversing; also recorded: significantly neutralized"},
      {"measurement": "effect on aPTT of control plasma", "setting": "pooled human plasma; antidote alone, highest concentration tested 2576 nM", "result": "no effect on aPTT"},
      {"measurement": "EC50", "setting": "pooled human plasma; with 400 nM betrixaban, read-out: EC50 of the antidote", "result": "~656", "unit": "nM"},
      {"measurement": "effect on thrombin activity and its inhibition by argatroban", "setting": "purified human thrombin", "result": "did not exhibit significant antidote activity; also recorded: does not detectably affect"},
      {"measurement": "reversal of the anticoagulant activity of betrixaban", "setting": "[2]", "result": "complete reversion; also recorded: substantially complete restoration of fXa activity"}
    ]}
  ]
}
